Assay results from the NIST ThermoML archive (doi:10.1016/j.fluid.2019.04.019).

Settings: Crystal; visual observation

## CCC[N+](CCC)(CCC)CCC.[Cl-] [tetrapropylammonium chloride]
  Normal melting temperature: 229.2 ± 0.5 °C

± gives the expanded uncertainty stated by the source.
